Values quoted from earlier work, collected in patent US20040132648A1, “Remedies and/or preventives for conformational diseases” (priority 2001, published 2004).

System: peptidase
Conditions: specified in Peptide Chemistry (1996) 249-252; cited from earlier work

Substance	resistance against peptidase in vivo
Arg-PACAP38	extremely strong resistance
Arg-PACAP27	extremely strong resistance
